Source: ChEMBL document CHEMBL4480409, “SGC-GAK-1: A Chemical Probe for Cyclin G Associated Kinase (GAK)” (J Med Chem, 2019)

What was measured:
[1] = target: T1, Cyclin-G-associated kinase (Homo sapiens, UniProt O14976); experiment: Binding affinity to biotinylated human GAK (13 to 338 residues) expressed in Escherichia coli incubated for 1.5 hrs by fluorescent tracer dependent TR-FRET based competitive ligand binding displacement assay
T1 sequence (O14976 whole entry): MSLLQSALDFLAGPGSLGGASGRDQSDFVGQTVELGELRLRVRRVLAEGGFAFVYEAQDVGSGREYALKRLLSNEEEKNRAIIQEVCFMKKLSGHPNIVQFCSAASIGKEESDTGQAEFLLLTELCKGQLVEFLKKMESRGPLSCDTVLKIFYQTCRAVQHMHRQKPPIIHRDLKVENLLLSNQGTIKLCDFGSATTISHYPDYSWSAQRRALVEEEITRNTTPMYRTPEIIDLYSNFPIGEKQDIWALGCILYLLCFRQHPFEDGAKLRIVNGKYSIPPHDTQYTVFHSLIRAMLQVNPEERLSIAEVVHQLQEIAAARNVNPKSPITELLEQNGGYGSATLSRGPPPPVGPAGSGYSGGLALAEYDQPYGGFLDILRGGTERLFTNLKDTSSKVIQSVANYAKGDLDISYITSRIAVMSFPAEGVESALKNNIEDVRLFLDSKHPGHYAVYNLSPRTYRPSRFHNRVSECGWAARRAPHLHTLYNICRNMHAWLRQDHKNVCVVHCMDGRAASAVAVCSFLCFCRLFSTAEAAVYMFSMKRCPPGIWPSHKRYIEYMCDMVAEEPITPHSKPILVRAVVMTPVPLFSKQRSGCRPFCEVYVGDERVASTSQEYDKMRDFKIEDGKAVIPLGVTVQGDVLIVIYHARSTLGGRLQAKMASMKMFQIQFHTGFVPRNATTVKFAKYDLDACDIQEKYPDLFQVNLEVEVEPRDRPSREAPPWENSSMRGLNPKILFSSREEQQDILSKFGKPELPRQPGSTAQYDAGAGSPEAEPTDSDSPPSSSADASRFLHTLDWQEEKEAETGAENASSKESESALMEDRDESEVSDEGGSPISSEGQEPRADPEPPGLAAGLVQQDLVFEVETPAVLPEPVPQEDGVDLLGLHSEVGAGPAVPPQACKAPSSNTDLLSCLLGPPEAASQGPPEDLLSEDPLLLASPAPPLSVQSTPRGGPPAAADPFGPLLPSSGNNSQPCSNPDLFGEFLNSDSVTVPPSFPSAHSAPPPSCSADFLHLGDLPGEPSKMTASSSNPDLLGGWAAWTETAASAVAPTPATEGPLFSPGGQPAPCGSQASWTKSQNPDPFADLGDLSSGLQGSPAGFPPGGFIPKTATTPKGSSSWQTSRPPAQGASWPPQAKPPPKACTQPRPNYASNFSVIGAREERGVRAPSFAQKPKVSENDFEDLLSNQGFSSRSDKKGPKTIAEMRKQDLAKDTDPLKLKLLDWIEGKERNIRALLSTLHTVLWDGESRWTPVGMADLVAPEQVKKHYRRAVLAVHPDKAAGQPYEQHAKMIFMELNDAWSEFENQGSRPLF

[2] = target: T1, Cyclin-G-associated kinase; experiment: Displacement of fluorescent tracer from N-terminus of human GAK expressed in HEK293T cells after 2 hrs by NanoBRET target engagement assay; format: cell-based
[3] = target: T1, Cyclin-G-associated kinase; experiment: Binding affinity to GAK (unknown origin) by ITC assay

COc1cc(Nc2ccnc3ccc(Br)cc23)cc(OC)c1OC
Kd [1]: 1.9 nM | IC50 [2]: 120 nM | Kd [3]: 4.5 nM
